Measurements as given in PubChem BioAssay AID435030 (The Scripps Research Institute Molecular Screening Center, 2010).
This is a selection; strong and weak results do not stand in their true shares. The source made the active and inactive calls. No stated cut-off is given here; in the data, active means inhibition above about 12%; inactive means the rest.

Assay: growth inhibition of E. coli expressing H. pylori AddAB, primary screen, AddAB inhibitor project, absorbance (AID 435030);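 further: 0% = vehicle wells of infected cells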
Conditions: at 11.9 µM, hits give high values

Row | SMILES | inhibition
1 | COc1ccc(C[C@H](C)NC[C@@H](O)c2ccc(O)c(NC=O)c2)cc1 | active: 45.7%
